Measurements: patent publication US6559158B1, “Use of methylnaltrexone and related compounds to treat chronic opioid use side affects” (UR Labs, Inc., priority 1997, dated 2003)

Assays:
[1] = test system: chronic methadone subjects; assay: Example 2: side effects, vital signs and opioid withdrawal; assay type: in vivo, human; conditions: methylnaltrexone group n=11, iv up to 0.365 mg/kg
[2] = test system: chronic methadone subjects with methadone-induced constipation; assay: Example 2: double-blind placebo-controlled trial of intravenous methylnaltrexone, laxation response; conditions: iv up to 0.365 mg/kg, P<0.0001 vs placebo

## C[N@+]1(CC2CC2)CC[C@]23c4c5ccc(O)c4O[C@H]2C(=O)CC[C@@]3(O)[C@H]1C5 [methylnaltrexone, N-methylnaltrexone bromide]
[1]
  opioid withdrawal symptoms: no opioid withdrawal symptoms observed
  side effects: No significant side effects
[2]; methylnaltrexone group n=11, Day 1 afternoon session
  subjects with immediate laxation response: Ten
[2]; methylnaltrexone group n=11, Day 2 morning session
  subjects with immediate laxation response: 11 subjects
